The assay has as its target human ERβ (Homo sapiens, UniProt Q92731). Description: competitive radiometric binding assay with [3H]estradiol, ERβ.

Sequences of proteins named here, by UniProt entry; tags and fusion partners are left off.
UniProt Q92731, whole entry: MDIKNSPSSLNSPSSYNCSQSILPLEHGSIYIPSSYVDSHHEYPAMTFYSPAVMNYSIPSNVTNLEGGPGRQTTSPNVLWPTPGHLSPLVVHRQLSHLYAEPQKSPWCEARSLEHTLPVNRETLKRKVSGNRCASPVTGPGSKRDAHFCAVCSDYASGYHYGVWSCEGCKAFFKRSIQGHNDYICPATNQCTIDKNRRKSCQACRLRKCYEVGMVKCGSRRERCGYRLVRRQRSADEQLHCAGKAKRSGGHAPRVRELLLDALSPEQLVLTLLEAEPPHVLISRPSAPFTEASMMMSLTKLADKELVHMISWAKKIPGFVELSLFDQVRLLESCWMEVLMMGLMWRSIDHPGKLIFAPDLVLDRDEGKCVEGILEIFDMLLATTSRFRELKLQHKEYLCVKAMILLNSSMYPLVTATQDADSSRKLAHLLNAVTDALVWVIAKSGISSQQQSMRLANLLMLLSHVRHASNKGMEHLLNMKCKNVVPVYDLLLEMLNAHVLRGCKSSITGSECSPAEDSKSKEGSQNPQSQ

Molecules are shown by their SMILES.

As to `C[C@]12CC[C@@H]3c4ccc(O)cc4CC[C@H]3[C@@H]1CC[C@@H]2O` [estradiol], the β/α ratio result was “[1]”.
